The target in this test is T1, CB1 receptor (Rattus norvegicus, UniProt P20272).
T1 construct: from tissue; host or cells: whole animal: male normotensive rats (Harlan)
Description: CP-55,940 induced hypotension in the rat. In kind it is in vivo. To be noted: read-out: Blood pressure (rat) ED50.

Chains of the proteins cited; added tags and fusions are not shown.
UniProt P20272, whole entry: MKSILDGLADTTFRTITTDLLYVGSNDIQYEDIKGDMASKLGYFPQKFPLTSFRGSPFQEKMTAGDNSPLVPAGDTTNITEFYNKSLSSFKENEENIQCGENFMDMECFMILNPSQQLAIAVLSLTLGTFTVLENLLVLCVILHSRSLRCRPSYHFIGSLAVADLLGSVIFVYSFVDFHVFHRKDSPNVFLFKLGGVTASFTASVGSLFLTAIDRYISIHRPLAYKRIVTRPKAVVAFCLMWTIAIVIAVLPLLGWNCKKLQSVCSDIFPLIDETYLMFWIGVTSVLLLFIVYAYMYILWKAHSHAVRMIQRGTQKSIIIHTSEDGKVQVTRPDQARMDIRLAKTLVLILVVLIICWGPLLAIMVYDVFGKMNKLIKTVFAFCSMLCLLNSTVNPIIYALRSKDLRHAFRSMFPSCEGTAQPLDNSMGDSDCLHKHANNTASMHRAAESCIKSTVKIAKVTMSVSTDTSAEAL

Take `Cc1c(C(=O)NN2CCCCC2)nn(-c2ccc(Cl)cc2Cl)c1-c1ccc(Cl)cc1` [rimonabant, reference compound]: the 50% effective dose (ED50) came out at 3.2 mg/kg.

A word on the ED50: it is the midpoint of the dose-response relation.
